Measured values reported in ChEMBL document CHEMBL4619828, “Discovery of Potent and Orally Bioavailable Small Molecule Antagonists of Toll-like Receptors 7/8/9 (TLR7/8/9)” (ACS Med Chem Lett, 2020).

Columns and labels:
Type in all cases: functional, organism-based
[1] = target: T1, Toll-like receptor 7 (Mus musculus) (UniProt P58681); assay: In vivo antagonist activity at TLR7 in po dosed C57BL/6 mouse assessed as reduction of gardiquimod-induced IL-6 production pretreated for 30 mins followed by gardiquimod-stimulation and measured after 120 mins by ELISA
T1 sequence (whole entry): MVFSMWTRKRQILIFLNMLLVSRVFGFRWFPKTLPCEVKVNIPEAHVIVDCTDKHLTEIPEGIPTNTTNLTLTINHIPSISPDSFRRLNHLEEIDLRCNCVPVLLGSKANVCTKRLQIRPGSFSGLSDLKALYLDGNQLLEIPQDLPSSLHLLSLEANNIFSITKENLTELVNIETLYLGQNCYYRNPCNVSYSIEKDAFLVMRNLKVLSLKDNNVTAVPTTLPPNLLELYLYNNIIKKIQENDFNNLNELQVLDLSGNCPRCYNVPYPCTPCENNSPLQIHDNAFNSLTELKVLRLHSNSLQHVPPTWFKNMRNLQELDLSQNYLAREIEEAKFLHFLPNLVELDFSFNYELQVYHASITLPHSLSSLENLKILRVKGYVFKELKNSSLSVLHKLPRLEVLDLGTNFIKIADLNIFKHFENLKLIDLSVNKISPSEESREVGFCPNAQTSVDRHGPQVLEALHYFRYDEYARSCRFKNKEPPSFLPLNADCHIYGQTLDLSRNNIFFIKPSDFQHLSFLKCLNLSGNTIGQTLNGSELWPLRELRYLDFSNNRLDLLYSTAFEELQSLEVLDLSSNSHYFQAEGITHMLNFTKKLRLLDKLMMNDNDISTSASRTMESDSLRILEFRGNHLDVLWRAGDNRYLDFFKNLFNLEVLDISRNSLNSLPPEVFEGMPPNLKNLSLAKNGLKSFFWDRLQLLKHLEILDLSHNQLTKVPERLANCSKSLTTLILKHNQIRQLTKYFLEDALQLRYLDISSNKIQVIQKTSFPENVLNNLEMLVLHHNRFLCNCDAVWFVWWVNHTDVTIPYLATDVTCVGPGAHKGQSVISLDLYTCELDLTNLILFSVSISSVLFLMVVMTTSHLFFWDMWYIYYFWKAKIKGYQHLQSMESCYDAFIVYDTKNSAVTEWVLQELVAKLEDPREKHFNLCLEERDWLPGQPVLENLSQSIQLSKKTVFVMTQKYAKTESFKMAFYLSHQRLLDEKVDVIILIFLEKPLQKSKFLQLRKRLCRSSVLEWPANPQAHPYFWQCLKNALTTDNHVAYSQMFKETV

[2] = target: T1, Toll-like receptor 7 (Mus musculus); assay: In vivo antagonist activity at TLR7 in C57BL/6 mouse assessed as reduction of gardiquimod-induced IL-6 production at 1 mg/kg, po pretreated for 30 mins followed by gardiquimod-stimulation and measured after 120 mins by ELISA; set-up: scale not given: the % may be the effect or the level left
[3] = target: T1, Toll-like receptor 7 (Mus musculus); assay: In vivo antagonist activity at TLR7 in C57BL/6 mouse assessed as reduction of gardiquimod-induced IL-6 production at 30 mg/kg, po pretreated for 30 mins followed by gardiquimod-stimulation and measured after 120 mins by ELISA; set-up: scale not given: the % may be the effect or the level left
[4] = target: T1, Toll-like receptor 7 (Mus musculus); assay: In vivo antagonist activity at TLR7 in C57BL/6 mouse assessed as reduction of gardiquimod-induced IL-6 production at 10 mg/kg, po pretreated for 30 mins followed by gardiquimod-stimulation and measured after 120 mins by ELISA; set-up: scale not given: the % may be the effect or the level left
[5] = target: T2, Toll-like receptor 9 (Mus musculus) (UniProt Q9EQU3); assay: In vivo antagonist activity at TLR9 in C57BL/6 mouse assessed as reduction of CpG-ODN-1585-induced IL-6 production at 1 mg/kg, po pretreated for 30 mins followed by CpG-ODN-1585-stimulation and measured after 120 mins by ELISA; set-up: scale not given: the % may be the effect or the level left
T2 sequence (whole entry): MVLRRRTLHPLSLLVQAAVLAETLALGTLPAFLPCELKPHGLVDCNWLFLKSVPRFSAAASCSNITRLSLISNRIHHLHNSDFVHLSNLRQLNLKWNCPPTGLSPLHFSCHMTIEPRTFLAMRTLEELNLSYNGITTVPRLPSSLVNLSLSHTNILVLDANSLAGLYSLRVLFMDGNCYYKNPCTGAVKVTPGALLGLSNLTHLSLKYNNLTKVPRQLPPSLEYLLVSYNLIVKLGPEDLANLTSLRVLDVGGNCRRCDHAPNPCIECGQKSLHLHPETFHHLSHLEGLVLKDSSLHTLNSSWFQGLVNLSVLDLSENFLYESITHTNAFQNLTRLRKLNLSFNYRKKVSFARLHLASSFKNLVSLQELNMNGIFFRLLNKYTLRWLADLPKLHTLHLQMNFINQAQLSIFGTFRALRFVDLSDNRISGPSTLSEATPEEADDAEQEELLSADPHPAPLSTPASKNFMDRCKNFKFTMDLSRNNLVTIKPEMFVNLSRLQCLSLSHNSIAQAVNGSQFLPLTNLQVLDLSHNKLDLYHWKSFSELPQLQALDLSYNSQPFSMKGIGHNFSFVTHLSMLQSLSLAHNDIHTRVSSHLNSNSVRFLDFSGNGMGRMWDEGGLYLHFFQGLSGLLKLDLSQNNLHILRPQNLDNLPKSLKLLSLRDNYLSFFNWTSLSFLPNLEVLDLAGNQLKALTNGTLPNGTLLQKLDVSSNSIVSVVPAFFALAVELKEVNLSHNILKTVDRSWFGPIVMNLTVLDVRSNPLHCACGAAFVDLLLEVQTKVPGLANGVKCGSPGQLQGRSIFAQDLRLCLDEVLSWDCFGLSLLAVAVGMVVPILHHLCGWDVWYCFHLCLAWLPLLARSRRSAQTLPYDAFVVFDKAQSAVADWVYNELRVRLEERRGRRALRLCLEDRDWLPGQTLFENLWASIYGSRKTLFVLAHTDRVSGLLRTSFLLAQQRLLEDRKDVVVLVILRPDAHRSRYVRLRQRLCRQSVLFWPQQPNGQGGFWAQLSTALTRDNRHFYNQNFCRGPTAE

[6] = target: T2, Toll-like receptor 9 (Mus musculus); assay: In vivo antagonist activity at TLR9 in C57BL/6 mouse assessed as reduction of CpG-ODN-1585-induced IL-6 production at 0.3 mg/kg, po pretreated for 30 mins followed by CpG-ODN-1585-stimulation and measured after 120 mins by ELISA; set-up: scale not given: the % may be the effect or the level left
[7] = target: T1, Toll-like receptor 7 (Mus musculus); assay: In vivo antagonist activity at TLR7 in C57BL/6 mouse assessed as reduction of gardiquimod-induced IL-6 production at 0.1 mg/kg, po pretreated for 30 mins followed by gardiquimod-stimulation and measured after 120 mins by ELISA; set-up: scale not given: the % may be the effect or the level left
[8] = target: T2, Toll-like receptor 9 (Mus musculus); assay: In vivo antagonist activity at TLR9 in C57BL/6 mouse assessed as reduction of CpG-ODN-1585-induced IL-6 production at 3 mg/kg, po pretreated for 30 mins followed by CpG-ODN-1585-stimulation and measured after 120 mins by ELISA; set-up: scale not given: the % may be the effect or the level left
[9] = target: T2, Toll-like receptor 9 (Mus musculus); assay: In vivo antagonist activity at TLR9 in po dosed C57BL/6 mouse assessed as reduction of CpG-ODN-1585-induced IL-6 production pretreated for 30 mins followed by CpG-ODN-1585-stimulation and measured after 120 mins by ELISA
[10] = target: T2, Toll-like receptor 9 (Mus musculus); assay: In vivo antagonist activity at TLR9 in C57BL/6 mouse assessed as reduction of CpG-ODN-1585-induced IL-6 production at 0.1 mg/kg, po pretreated for 30 mins followed by CpG-ODN-1585-stimulation and measured after 120 mins by ELISA; set-up: scale not given: the % may be the effect or the level left
[11] = target: T2, Toll-like receptor 9 (Mus musculus); assay: In vivo antagonist activity at TLR9 in C57BL/6 mouse assessed as reduction of CpG-ODN-1585-induced IL-6 production at 30 mg/kg, po pretreated for 30 mins followed by CpG-ODN-1585-stimulation and measured after 120 mins by ELISA; set-up: scale not given: the % may be the effect or the level left
[12] = target: T1, Toll-like receptor 7 (Mus musculus); assay: In vivo antagonist activity at TLR7 in C57BL/6 mouse assessed as reduction of gardiquimod-induced IL-6 production at 3 mg/kg, po pretreated for 30 mins followed by gardiquimod-stimulation and measured after 120 mins by ELISA; set-up: scale not given: the % may be the effect or the level left

- Activity [1]: Dose-dependent effect
- Activity [2]: 68%
- Activity [3]: 99%
- Activity [4]: 97%
- Activity [5]: 45%
- Activity [6]: 16%
- Activity [7]: 34%
- Activity [8]: 74%
- Activity [9]: Dose-dependent effect
- Activity [10]: 8%
- Activity [11]: 87%
- Activity [12]: 88%
SMILES: CNCCN1CCC(c2ccc3[nH]c(-c4ccc(OC)c(OC)c4)c(C(C)C)c3c2)CC1
